Measured values reported in patent publication US20240245789A1, “POLYMER CONJUGATES OF DRUGS TARGETING 5-HT AND OTHER RECEPTORS IN THE CENTRAL NERVOUS SYSTEM (CNS) THAT ALSO TARGETS RECEPTORS OUTSIDE OF THE CNS” (Arbormentis LLC, priority 2021, published 2024).

Legend:
[1] = test system: HepG2 cells; test: in vitro model of NAFLD: lipid accumulation in HepG2 cells incubated with PA:OA mix; details: 24 hours with 1 mM 1:1 PA:OA mixture
[2] = test system: mice with non alcoholic fatty liver disease (NAFLD); test: mice with NAFLD (high fat diet plus 30% fructose in drinking water), daily oral psilocybin; details: 0.05 mg/kg daily, during the weeks of treatment

## CN(C)CCc1c[nH]c2cccc(O)c12 [psilocin]
[1]
  accumulation of triglycerides inside the cells: reduces the accumulation of triglycerides inside the cells in a dose-dependent manner
  number and area of lipid droplets: reduction of the number and the area of lipid droplets

## CN(C)CCc1c[nH]c2cccc(OP(=O)(O)O)c12 [psilocybin]
[2]
  signs of psychoactive effects: No signs of psychoactive effects have been observed
